From patent US12227479B2, “Dihydropyridines for the treatment of cognitive impairment or traumatic brain injury” (Icahn School of Medicine at Mount Sinai, priority 2017, dated 2025) come the findings set out here.

One assay deals with Aβ42. Put plainly: Long-term daily IP treatment of AD transgenic mice: brain Aβ42 levels. The note with it: APP/PS1 transgenic mouse neocortex, 2.5 mg/kg/day IP for 6 months, vs Tg vehicle. In kind it is in vivo. How it is done:
(§1) FIG. 6 Long-term in vivo treatment of nimodipine or Example 9 via daily IP injection at 2.5 mg/kg/day in AD transgenic mice. 2-3 months old AD transgenic mice were treated with vehicle, nimodipine or Example 9 at 2.5 mg/kg/day for 6 months via daily IP injection before subjected for behavior studies followed by biochemical analysis. Reduction in levels of insoluble Aβ40 and soluble Aβ42 with Example 9 treated Tg animal brains. […] N=5-7/group. Vehicle-treated conditions were used as controls and results were presented as percentage of the control (±SEM). One-way ANOVA was performed followed by post-hoc multiple comparison tests to determine the significance of differences between drug-treated vs DMSO control. *p<0.05, **p<0.01.

The next assay deals with Aβ40. Description: Long-term daily IP treatment of AD transgenic mice: brain Aβ40 levels. In kind it is in vivo. To be noted: APP/PS1 transgenic mouse neocortex, 2.5 mg/kg/day IP for 6 months, vs Tg vehicle. How it is done:
as §1

Consider `COCCOC(=O)C1=C(C)NC(C)=C(C(=O)OC(C)C)C1c1cccc([N+](=O)[O-])c1` (racemic) [nimodipine, reference compound], for which, in the assay with Aβ42, the “decrease in insoluble Aβ42 levels” value is 11% and the “decrease in soluble Aβ42 levels” value was “insoluble Aβ42 levels, a 16.8% decrease in soluble Aβ42 levels,”. Moreover, in the assay with Aβ40, the “decrease in insoluble Aβ40 levels” value came out at 14.2%.
